Laboratory results from patent publication US20240018161A1, “MODULATORS OF CYSTIC FIBROSIS TRANSMEMBRANE CONDUCTANCE REGULATOR” (VERTEX PHARMACEUTICALS INCORPORATED, priority 2020, published 2024).

Amino acid sequences for entries named in this document (tags omitted). Chains listed by the source or under a name are the forms on record and can include a tag or linker.
UniProt P13569, with tags, fused parts or gaps DEL508-508: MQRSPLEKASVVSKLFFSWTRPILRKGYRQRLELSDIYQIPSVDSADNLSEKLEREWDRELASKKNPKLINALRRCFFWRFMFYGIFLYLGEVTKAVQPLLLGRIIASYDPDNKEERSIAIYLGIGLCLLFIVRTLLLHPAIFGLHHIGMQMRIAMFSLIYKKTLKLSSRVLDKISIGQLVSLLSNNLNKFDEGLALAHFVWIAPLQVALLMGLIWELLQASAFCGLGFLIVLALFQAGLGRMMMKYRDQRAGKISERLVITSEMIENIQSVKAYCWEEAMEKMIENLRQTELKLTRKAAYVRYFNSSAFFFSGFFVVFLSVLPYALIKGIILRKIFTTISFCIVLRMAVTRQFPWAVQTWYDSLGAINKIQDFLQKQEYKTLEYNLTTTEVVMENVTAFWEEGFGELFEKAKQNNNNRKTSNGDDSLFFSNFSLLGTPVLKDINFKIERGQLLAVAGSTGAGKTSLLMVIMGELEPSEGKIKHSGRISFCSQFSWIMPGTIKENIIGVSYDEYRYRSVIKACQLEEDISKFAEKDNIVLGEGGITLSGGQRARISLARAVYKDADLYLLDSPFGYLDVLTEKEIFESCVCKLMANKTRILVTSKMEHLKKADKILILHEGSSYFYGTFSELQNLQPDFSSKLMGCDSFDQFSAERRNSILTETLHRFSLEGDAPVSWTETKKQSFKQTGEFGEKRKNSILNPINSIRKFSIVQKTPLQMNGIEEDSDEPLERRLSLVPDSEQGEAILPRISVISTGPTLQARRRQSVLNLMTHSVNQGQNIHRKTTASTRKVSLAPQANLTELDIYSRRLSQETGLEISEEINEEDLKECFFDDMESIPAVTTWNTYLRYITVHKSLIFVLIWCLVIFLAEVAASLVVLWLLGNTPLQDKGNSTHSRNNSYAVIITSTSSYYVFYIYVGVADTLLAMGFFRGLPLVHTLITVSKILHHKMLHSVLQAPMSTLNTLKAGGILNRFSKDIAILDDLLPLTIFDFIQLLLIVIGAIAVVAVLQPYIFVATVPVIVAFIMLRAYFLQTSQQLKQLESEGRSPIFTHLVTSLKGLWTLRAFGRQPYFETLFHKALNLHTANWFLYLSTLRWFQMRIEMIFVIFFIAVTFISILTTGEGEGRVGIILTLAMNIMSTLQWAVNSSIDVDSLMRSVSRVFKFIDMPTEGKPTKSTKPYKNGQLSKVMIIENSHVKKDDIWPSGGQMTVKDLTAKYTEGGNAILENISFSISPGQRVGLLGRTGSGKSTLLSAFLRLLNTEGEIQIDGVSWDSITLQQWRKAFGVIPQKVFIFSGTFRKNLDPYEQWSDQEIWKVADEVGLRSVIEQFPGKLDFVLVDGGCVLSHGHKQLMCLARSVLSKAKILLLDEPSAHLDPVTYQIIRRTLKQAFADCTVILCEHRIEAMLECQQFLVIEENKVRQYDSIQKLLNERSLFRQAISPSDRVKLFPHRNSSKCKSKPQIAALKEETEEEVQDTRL

Target: CFTR-mediated chloride transport in human intestinal epithelial enteroid cells (Homo sapiens, UniProt P13569)
Assay: Membrane potential dye, Enteroid Assay A
Format: cell-based
Conditions: read-out: Ent. A EC50
Experimental: Base medium (ADF+++) consisted of Advanced DMEM/Ham's F12, 2 mM Glutamax, 10 mM HEPES, […] penicillin/streptomycin.
Bath 1 Buffer consisted of 1 mM MgCl2, 160 mM NaCl, 4.5 mM KCl, 10 mM HEPES, 10 mM Glucose, 2 mM CaCl2.
Chloride Free Buffer consisted of 1 mM Magnesium Gluconate, 2 mM Calcium Gluconate, 4.5 mM Potassium Gluconate, 160 mM Sodium Gluconate, 10 mM HEPES, 10 mM Glucose.
Bath1 Dye Solution consisted of Bath 1 Buffer, 0.04% Pluronic F127, 20 μM Methyl Oxonol, 30 μM CaCCinh-A01, 30 μM Chicago Sky Blue.
Chloride Free Dye Solution consisted of Chloride Free Buffer, 0.04% Pluronic F127, 20 μM Methyl Oxonol, 30 μM CaCCinh-A01, 30 μM Chicago Sky Blue.
3. […]
Briefly, cells were washed 5 times in Bath 1 Buffer. […] Chloride transport was initiated by addition of Chloride Free Dye Stimulation Solution and the fluorescence signal was read for 15 min. […] Chloride transport was then expressed as a percentage of the chloride transport following treatment with 3 μM N-[(6-amino-2-pyridyl)sulfonyl]-6-(3-fluoro-5-isobutoxy-phenyl)-2-[(4S)-2,2,4-trimethylpyrrolidin-1-yl]pyridine-3-carboxamide, 3 μM (R)-1-(2,2-difluorobenzo[d][1,3]dioxol-5-yl)-N-(1-(2,3-dihydroxypropyl)-6-fluoro-2-(1-hydroxy-2-methylpropan-2-yl)-1H-indol-5-yl)cyclopropanecarboxamide and 300 nM acute N-[2,4-bis(1,1-dimethylethyl)-5-hydroxyphenyl]-1,4-dihydro-4-oxoquinoline-3-carboxamide triple combination control (% Activity).

Cc1cccc(C)c1-c1cc2nc(n1)NS(=O)(=O)c1cccc(c1)C(=O)N1CCN(C3CCC(F)(F)CC3)C[C@@H](O2)[C@H]1CC(C)C [Compound 158]
EC50: < 1 µM
